# Molecular target: Recombinant heterodimeric HCV NS3/NS4A protease (strain 1a) (Hepatitis C virus genotype 1a, UniProt P27958)
# Chains of the proteins cited; added tags and fusions are not shown. Residues count along the entry.
# UniProt P27958, 1027-1657: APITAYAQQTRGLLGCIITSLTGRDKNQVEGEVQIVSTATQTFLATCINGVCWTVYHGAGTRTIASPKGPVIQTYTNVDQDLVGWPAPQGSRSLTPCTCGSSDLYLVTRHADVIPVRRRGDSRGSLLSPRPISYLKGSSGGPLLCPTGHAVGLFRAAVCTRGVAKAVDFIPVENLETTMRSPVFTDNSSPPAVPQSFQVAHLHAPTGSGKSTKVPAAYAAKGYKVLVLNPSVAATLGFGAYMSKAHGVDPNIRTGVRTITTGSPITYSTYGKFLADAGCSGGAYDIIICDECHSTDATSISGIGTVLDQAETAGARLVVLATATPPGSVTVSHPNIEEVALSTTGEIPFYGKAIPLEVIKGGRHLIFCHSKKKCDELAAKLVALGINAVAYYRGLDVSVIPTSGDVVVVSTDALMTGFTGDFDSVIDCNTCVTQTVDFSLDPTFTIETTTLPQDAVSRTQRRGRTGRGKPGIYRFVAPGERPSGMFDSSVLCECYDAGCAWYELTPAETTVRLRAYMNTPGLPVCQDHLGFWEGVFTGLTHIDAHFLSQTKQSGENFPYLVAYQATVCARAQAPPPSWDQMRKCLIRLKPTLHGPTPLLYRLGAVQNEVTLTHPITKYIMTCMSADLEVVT
# UniProt P27958, 1658-1711: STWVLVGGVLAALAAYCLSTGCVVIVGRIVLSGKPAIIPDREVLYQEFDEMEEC
# Assay: Spectrophotometric assay for HCV NS3/NS4a serine protease inhibitory activity (chromogenic ester substrates)
# Format: biochemical
# [1] = Table I, NS3/NS4a serine protease inhibitory activity
SMILES,Ki (Table 3) [nM],"Ki (Table 2, range classes) [nM]",also measured
CC1([C@H](NC(=O)[C@@H](NC(=O)c2cnccn2)C2CCCCC2)C(=O)N2C[C@H]3[C@@H]([C@H]2C(=O)NC(CC2CCC2)C(=O)C(N)=O)C3(C)C)CCCCC1 (stereo partly shown) [Entry 1],3.2,,
CCC[C@H](NC(=O)[C@@H]1[C@@H]2[C@H](CN1C(=O)[C@@H](NC(=O)[C@@H](NC(=O)c1cnccn1)C1CCCCC1)C(C)(C)C)C2(C)C)C(=O)C(=O)NC1CC1 [Entry 1],,,Ki [1]: 10 nM
C#CCCC(NC(=O)[C@@H]1[C@@H]2[C@H](CN1C(=O)[C@@H](NC(=O)[C@@H](NC(=O)c1cnccn1)C1CCCCC1)C(C)(C)C)C2(C)C)C(=O)C(=O)NCC=C (stereo partly shown) [Entry 2],,,Ki [1]: 6 nM
C=CCNC(=O)C(=O)C(CCC)NC(=O)[C@@H]1[C@@H]2[C@H](CN1C(=O)[C@@H](NC(=O)[C@@H](NC(=O)c1cnccn1)C1CCCCC1)C1CCCCC1)C2(C)C (stereo partly shown) [Entry 2],,≤ 100,
CC1([C@H](NC(=O)[C@@H](NC(=O)c2cnccn2)C2CCCCC2)C(=O)N2C[C@H]3[C@@H]([C@H]2C(=O)NC(CC2CC2)C(=O)C(N)=O)C3(C)C)CCCCC1 (stereo partly shown) [Entry 2],4,,
C#CCCC(NC(=O)[C@@H]1[C@@H]2[C@H](CN1C(=O)[C@@H](NC(=O)[C@@H](NC(=O)c1cnccn1)C1(C)CCCCC1)C(C)(C)C)C2(C)C)C(=O)C(=O)NCC=C (stereo partly shown) [Entry 3],4,,
C=CCNC(=O)C(=O)C(CC1CCC1)NC(=O)[C@@H]1[C@@H]2[C@H](CN1C(=O)[C@@H](NC(=O)[C@@H](NC(=O)c1cnccn1)C1CCCCC1)C1CCCCC1)C2(C)C (stereo partly shown) [Entry 3],,≤ 100,
C#CCCC(NC(=O)[C@@H]1[C@@H]2[C@H](CN1C(=O)[C@@H](NC(=O)[C@@H](NC(=O)c1cnccn1)C1CCCCC1)C1(C)CCCCC1)C2(C)C)C(=O)C(=O)NCC=C (stereo partly shown) [Entry 4],5,,
C=CCNC(=O)C(=O)C(CC1CC1)NC(=O)[C@@H]1[C@@H]2[C@H](CN1C(=O)[C@@H](NC(=O)[C@@H](NC(=O)c1cnccn1)C1CCCCC1)C1CCCCC1)C2(C)C (stereo partly shown) [Entry 4],,≤ 100,
C#CCCC(NC(=O)[C@@H]1[C@@H]2[C@H](CN1C(=O)[C@@H](NC(=O)[C@@H](NC(=O)c1cnccn1)C1CCCCC1)C(C)(C)C)C2(C)C)C(=O)C(=O)NCC=C (stereo partly shown) [Entry 5],6,,
C=CCNC(=O)C(=O)C(CCC)NC(=O)[C@@H]1[C@@H]2[C@H](CN1C(=O)[C@@H](NC(=O)[C@@H](NC(=O)c1cnccn1)C1CCCCC1)C1(C)CCCCC1)C2(C)C (stereo partly shown) [Entry 5],,≤ 100,
C=CCNC(=O)C(=O)C(CCCC)NC(=O)[C@@H]1[C@@H]2[C@H](CN1C(=O)[C@@H](NC(=O)[C@@H](NC(=O)c1cnccn1)C1CCCCC1)C1(C)CCCCC1)C2(C)C (stereo partly shown) [Entry 6],,≤ 100,
CCC[C@H](NC(=O)[C@@H]1[C@@H]2[C@H](CN1C(=O)[C@@H](NC(=O)[C@@H](NC(=O)c1cnccn1)C1(C)CCCCC1)C(C)(C)C)C2(C)C)C(=O)C(=O)NC1CC1 [Entry 6],7,,
C#CCCC(NC(=O)[C@@H]1[C@@H]2[C@H](CN1C(=O)[C@@H](NC(=O)[C@@H](NC(=O)c1cnccn1)C1(C)CCCCC1)C1(C)CCCCC1)C2(C)C)C(=O)C(=O)NCC=C (stereo partly shown) [Entry 7],7,,
C#CCCC(NC(=O)[C@@H]1[C@@H]2[C@H](CN1C(=O)[C@@H](NC(=O)[C@@H](NC(=O)c1cnccn1)C1CCCCC1)C1(C)CCCCC1)C2(C)C)C(=O)C(=O)NCC=C (stereo partly shown) [Entry 7],,≤ 100,
C=CCNC(=O)C(=O)C(CC1CCC1)NC(=O)[C@@H]1[C@@H]2[C@H](CN1C(=O)[C@@H](NC(=O)[C@@H](NC(=O)c1cnccn1)C1CCCCC1)C1(C)CCCCC1)C2(C)C (stereo partly shown) [Entry 8],,≤ 100,
C=CCNC(=O)C(=O)C(CCC)NC(=O)[C@@H]1[C@@H]2[C@H](CN1C(=O)[C@@H](NC(=O)[C@@H](NC(=O)c1cnccn1)C1CCCCC1)C1(C)CCCCC1)C2(C)C (stereo partly shown) [Entry 8],9,,

SMILES,Ki (Table 3) [nM],"Ki (Table 2, range classes) [nM]",also measured
C=CCNC(=O)C(=O)C(CCC(F)(F)F)NC(=O)[C@@H]1[C@@H]2[C@H](CN1C(=O)[C@@H](NC(=O)[C@@H](NC(=O)c1cnccn1)C1CCCCC1)C(C)(C)C)C2(C)C (stereo partly shown) [Entry 9],12,,
CC1([C@H](NC(=O)[C@@H](NC(=O)c2cnccn2)C2CCCCC2)C(=O)N2C[C@H]3[C@@H]([C@H]2C(=O)NC(CC2CC2)C(=O)C(N)=O)C3(C)C)CCCCC1 (stereo partly shown) [Entry 9],,≤ 100,
C=CCNC(=O)C(=O)C(CCC)NC(=O)[C@@H]1[C@@H]2[C@H](CN1C(=O)[C@@H](NC(=O)[C@@H](NC(=O)c1cnccn1)C1(C)CCCCC1)C(C)(C)C)C2(C)C (stereo partly shown) [Entry 10],12,,
CC1([C@H](NC(=O)[C@@H](NC(=O)c2cnccn2)C2CCCCC2)C(=O)N2C[C@H]3[C@@H]([C@H]2C(=O)NC(CC2CCC2)C(=O)C(N)=O)C3(C)C)CCCCC1 (stereo partly shown) [Entry 10],,≤ 100,
C=CCNC(=O)C(=O)C(CC1CCC1)NC(=O)[C@@H]1[C@@H]2[C@H](CN1C(=O)[C@@H](NC(=O)[C@@H](NC(=O)c1cnccn1)c1ccccc1)C(C)(C)C)C2(C)C (stereo partly shown) [Entry 11],,100 to 1000,
CCC[C@H](NC(=O)[C@@H]1[C@@H]2[C@H](CN1C(=O)[C@@H](NC(=O)[C@@H](NC(=O)c1cnccn1)C1CCCCC1)C(C)(C)C)C2(C)C)C(=O)C(=O)NC1CC1 [Entry 11],13,,
C=CCNC(=O)C(=O)C(CC1CC1)NC(=O)[C@@H]1[C@@H]2[C@H](CN1C(=O)[C@@H](NC(=O)[C@@H](NC(=O)c1cnccn1)c1ccccc1)C(C)(C)C)C2(C)C (stereo partly shown) [Entry 12],,≤ 100,
C=CCNC(=O)C(=O)C(CCCC)NC(=O)[C@@H]1[C@@H]2[C@H](CN1C(=O)[C@@H](NC(=O)[C@@H](NC(=O)c1cnccn1)C1CCCCC1)C1(C)CCCCC1)C2(C)C (stereo partly shown) [Entry 12],13,,
C=CCNC(=O)C(=O)C(CCC)NC(=O)[C@@H]1[C@@H]2[C@H](CN1C(=O)[C@@H](NC(=O)[C@@H](NC(=O)c1cnccn1)C1CCCCC1)C1Cc3ccccc3C1)C2(C)C (stereo partly shown) [Entry 13],13,,
CC(C)(C)[C@H](NC(=O)[C@@H](NC(=O)c1cnccn1)c1ccccc1)C(=O)N1C[C@H]2[C@@H]([C@H]1C(=O)NC(CC1CC1)C(=O)C(N)=O)C2(C)C (stereo partly shown) [Entry 13],,≤ 100,
C=CCNC(=O)C(=O)C(CCC)NC(=O)[C@@H]1[C@@H]2[C@H](CN1C(=O)[C@@H](NC(=O)[C@@H](NC(=O)c1cnccn1)C1CCCCC1)C(C)(C)C)C2(C)C (stereo partly shown) [Entry 14],14,,
C=CCNC(=O)C(=O)C(CCCC)NC(=O)[C@@H]1[C@@H]2[C@H](CN1C(=O)[C@@H](NC(=O)[C@@H](NC(=O)c1cnccn1)c1ccccc1)C(C)(C)C)C2(C)C (stereo partly shown) [Entry 14],,≤ 100,
C=CCNC(=O)C(=O)C(CCCC)NC(=O)[C@@H]1[C@@H]2[C@H](CN1C(=O)[C@@H](NC(=O)[C@@H](NC(=O)c1cnccn1)C1CCCCC1)C1CCCCC1)C2(C)C (stereo partly shown) [Entry 15],16,,
CCCC(NC(=O)[C@@H]1[C@@H]2[C@H](CN1C(=O)[C@@H](NC(=O)[C@@H](NC(=O)c1cnccn1)c1ccccc1)C(C)(C)C)C2(C)C)C(=O)C(N)=O (stereo partly shown) [Entry 15],,≤ 100,
C=CCNC(=O)C(=O)C(CCCC)NC(=O)[C@@H]1[C@@H]2[C@H](CN1C(=O)[C@@H](NC(=O)[C@@H](NC(=O)c1cnccn1)C1CCCCC1)C(C)(C)C)C2(C)C (stereo partly shown) [Entry 16],16,,
CC(C)(C)[C@H](NC(=O)[C@@H](NC(=O)c1cnccn1)c1ccccc1)C(=O)N1C[C@H]2[C@@H]([C@H]1C(=O)NC(CC1CCC1)C(=O)C(N)=O)C2(C)C (stereo partly shown) [Entry 16],,≤ 100,
C=CCNC(=O)C(=O)C(CC1CC1)NC(=O)[C@@H]1[C@@H]2[C@H](CN1C(=O)[C@@H](NC(=O)[C@@H](NC(=O)c1cnccn1)C1CCCCC1)C1(C)CCCCC1)C2(C)C (stereo partly shown) [Entry 17],,≤ 100,

# From patent US7485625B2, “Inhibitors of hepatitis C virus NS3/NS4a serine protease” (Schering Corporation, priority 2003, dated 2009)
